Experimental data reported in patent publication US5648330A, “Method and composition for treating vascular graft occlusion” (La Jolla Cancer Research Foundation, priority 1995, dated 1997).

Amino acid sequences for entries named in this document (tags omitted). Residues count along the entry.
UniProt P05106, 27-788: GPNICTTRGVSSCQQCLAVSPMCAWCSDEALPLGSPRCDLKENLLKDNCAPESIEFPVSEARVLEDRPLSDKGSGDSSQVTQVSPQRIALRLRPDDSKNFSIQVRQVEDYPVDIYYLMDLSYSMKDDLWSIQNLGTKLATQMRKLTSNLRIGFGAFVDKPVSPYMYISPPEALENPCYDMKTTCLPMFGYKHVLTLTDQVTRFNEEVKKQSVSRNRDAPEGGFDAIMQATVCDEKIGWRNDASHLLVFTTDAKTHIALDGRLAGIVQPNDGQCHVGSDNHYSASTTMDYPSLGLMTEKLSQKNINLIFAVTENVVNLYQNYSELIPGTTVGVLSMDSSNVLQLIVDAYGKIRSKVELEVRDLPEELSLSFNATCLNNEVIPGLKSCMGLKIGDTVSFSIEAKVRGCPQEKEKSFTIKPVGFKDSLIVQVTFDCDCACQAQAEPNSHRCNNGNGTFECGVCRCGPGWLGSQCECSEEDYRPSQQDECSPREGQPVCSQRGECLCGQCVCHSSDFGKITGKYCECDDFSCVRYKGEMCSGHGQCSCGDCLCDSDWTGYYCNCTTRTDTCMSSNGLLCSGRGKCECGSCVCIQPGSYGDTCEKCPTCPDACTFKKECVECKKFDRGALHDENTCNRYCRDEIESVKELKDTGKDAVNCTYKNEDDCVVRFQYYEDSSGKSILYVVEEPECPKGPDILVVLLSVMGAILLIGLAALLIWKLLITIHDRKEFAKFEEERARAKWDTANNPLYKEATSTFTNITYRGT
UniProt P06756, 891-1048 partner limits assumed: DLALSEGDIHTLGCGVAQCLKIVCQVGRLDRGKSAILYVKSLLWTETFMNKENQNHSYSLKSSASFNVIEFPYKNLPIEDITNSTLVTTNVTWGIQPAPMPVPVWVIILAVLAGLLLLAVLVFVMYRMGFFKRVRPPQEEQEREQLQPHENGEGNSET
UniProt P06756, 31-889 limits assumed: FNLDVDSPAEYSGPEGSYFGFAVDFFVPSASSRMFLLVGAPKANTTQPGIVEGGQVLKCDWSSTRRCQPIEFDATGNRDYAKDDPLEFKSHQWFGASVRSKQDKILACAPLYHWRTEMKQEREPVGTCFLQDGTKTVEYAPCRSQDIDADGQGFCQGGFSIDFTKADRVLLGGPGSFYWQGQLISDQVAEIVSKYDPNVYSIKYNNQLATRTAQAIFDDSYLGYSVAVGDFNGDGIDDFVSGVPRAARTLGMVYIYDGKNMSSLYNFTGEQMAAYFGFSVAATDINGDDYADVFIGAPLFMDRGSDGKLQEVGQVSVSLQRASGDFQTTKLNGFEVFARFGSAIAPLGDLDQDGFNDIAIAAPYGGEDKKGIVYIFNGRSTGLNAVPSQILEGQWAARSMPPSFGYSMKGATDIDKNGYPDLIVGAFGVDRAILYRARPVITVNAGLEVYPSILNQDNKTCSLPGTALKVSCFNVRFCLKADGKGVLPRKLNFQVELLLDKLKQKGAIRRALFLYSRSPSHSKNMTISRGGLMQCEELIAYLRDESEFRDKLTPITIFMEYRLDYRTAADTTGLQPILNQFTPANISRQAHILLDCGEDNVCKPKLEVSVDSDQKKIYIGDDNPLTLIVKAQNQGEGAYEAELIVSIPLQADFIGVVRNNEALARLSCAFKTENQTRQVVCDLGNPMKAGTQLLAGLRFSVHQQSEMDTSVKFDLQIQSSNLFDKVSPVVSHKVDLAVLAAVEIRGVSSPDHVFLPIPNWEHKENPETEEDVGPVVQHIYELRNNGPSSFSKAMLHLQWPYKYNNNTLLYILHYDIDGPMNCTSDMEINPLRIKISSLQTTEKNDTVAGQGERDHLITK
UniProt P08514, 32-887 limits assumed: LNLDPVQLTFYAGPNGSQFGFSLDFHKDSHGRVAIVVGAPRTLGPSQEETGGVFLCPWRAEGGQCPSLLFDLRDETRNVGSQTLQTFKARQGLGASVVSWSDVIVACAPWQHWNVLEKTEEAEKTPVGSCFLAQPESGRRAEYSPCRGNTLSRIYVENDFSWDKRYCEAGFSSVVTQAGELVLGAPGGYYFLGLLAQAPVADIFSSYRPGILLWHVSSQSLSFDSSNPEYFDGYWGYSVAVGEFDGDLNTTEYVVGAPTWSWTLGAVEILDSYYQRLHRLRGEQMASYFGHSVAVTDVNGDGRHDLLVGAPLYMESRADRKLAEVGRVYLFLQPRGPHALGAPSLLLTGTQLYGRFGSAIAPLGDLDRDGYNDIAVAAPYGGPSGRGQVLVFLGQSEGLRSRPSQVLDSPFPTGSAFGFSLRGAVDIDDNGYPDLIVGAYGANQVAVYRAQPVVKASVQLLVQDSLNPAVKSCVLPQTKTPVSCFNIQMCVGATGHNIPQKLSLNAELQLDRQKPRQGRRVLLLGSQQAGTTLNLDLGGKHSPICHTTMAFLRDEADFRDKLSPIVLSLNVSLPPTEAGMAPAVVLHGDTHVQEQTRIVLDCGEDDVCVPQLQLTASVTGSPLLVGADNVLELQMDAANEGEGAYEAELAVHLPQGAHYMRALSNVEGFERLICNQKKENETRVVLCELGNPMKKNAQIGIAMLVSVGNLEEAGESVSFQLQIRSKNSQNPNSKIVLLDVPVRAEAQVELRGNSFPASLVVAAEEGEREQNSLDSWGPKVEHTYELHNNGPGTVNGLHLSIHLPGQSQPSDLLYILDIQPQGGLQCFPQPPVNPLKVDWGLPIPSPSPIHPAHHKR
UniProt P08514, 891-1039 partner limits assumed: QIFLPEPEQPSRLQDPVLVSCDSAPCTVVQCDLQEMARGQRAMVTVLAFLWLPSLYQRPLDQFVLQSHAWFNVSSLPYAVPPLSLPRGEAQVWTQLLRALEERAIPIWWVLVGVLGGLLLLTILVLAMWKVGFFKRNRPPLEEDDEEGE

Tests used:
[1] = Template bleeding, clotting times and hematology in baboon shunt study; format: in vivo
Protocol: Twenty-four hours before the ex vivo shunt was established, platelets were isolated from 500 ml of blood from the test animal and labelled with ca. 500 microcuries of indium-111 oxine (Medi+Physics, Emeryville, Calif.), which irreversibly and specifically binds to platelets with an efficiency of 50%. Immediately after labelling, these platelets were then injected back into the animal and allowed to circulate for 24 hours. Immediately before the start of the study, fibrinogen that had been isolated from the animal and labelled with iodine-131 (DuPont Nuclear, Boston, Mass.) was also injected back into the animal. Also at this time, baseline determinations of the clotting and template bleeding times were made, and blood samples were drawn for hematology studies.
At one- and two-hour time points, template bleeding times were measured, and blood samples were drawn to assess the hematology aggregation studies. Platelet aggregation studies were performed as described in Example V using ADP as the stimulus.
Upon the completion of each study, each shunt was flushed with lactated Ringer's solution, and each graft was then removed. Sections of these grafts were subjected to liquid scintillation counting to determine their content of residual iodine ^131 -fibrinogen and indium^111 -platelets. The catheters in the femoral artery and vein were then removed, and hemostasis was achieved by compression. Finally, post-procedural blood samples were drawn, and determinations of template bleeding and clotting times were also made.

[2] = biological target: T1, Vitronectin receptor (Vn-R) (Homo sapiens, UniProt P05106+P06756); assay: Liposome attachment assay for vitronectin receptor; conditions: purified receptor, read-out: VnR Binding (IC50)
T1 construct: from (100 mM) octyl glucoside (OG) extracted human placenta; from tissue; host or cells: human placenta
Protocol: Receptors were purified according to the procedures of Pytela et al. (Methods Enzymol. 144: 475 (1987)), incorporated herein by reference. […] After extraction, the suspension was filtered over a Sepharose 6B column and then applied to a GRGDSPK column. Except where stated, all procedures were carried out at 4° C. The peptide column was washed with three volumes of Tris-buffered saline (TBS) containing 1 mM Ca^2+ and 25 mM OG and then with TBS containing 1 mM Ca^2+ and 25 mM octyl thioglucoside (OTG) at room temperature. […] Finally, Ca^2+ and Mg^+2 were added to eluted fractions to achieve final concentrations of 1 mM for both ions.
This assay was performed with minor modifications, according to the method of Pytela et al., Methods Enzymol. 144: 475 (1987), incorporated herein by reference. […] An aliquot of the dialyzed sample was counted to assess radioactive content; the receptor-liposome mixture was then diluted to obtain a set radioactivity per unit volume. […]
(§1) In parallel studies with the platelet aggregation experiments (described in Example V), the apparent affinities of peptides for GP IIb/IIIa, fibronectin and vitronectin receptors were determined. […]
(§2) IC50 s for FnR were determined by ELISA (Example III). Those for VnR and GP IIb/IIIa were determined by liposome attachment assay (Example IV). […]

GP IIb/IIIa = GP IIb/IIIa (Homo sapiens, UniProt P05106+P08514); assay: Liposome attachment assay for GP IIb/IIIa; conditions: read-out: IIb/IIIa Binding (IC50)
Protocol: This assay was performed with minor modifications, according to the method of Pytela et al., Methods Enzymol. 144: 475 (1987), incorporated herein by reference. Briefly, 1:4 mixture of labelled and unlabelled phosphatidylcholine (PC) liposomes was dissolved under nitrogen and diluted with an equal volume of purified receptor (purified as described in Example II) to achieve a fixed predetermined receptor-liposome concentration ratio. This mixture was then dialyzed overnight at 4° C. in phosphate buffered saline (PBS) containing 1 mM Ca^2+. An aliquot of the dialyzed sample was counted to assess radioactive content; the receptor-liposome mixture was then diluted to obtain a set radioactivity per unit volume.
Microtiter plates were coated with 10 μg of vitronectin. Non-specific sites were blocked for 2 hours at 37° C. in PBS containing 5 mg/ml BSA and 1 mM each of CaCl2 and MgCl2. The plates were then rinsed twice with PBS containing 1 mM Ca^+2 and Mg^+2, and 100 μl of the liposome-receptor mixture was added to each well. […]
as §1, §2

[3] = animal 1, immediately after completion of second shunt

**Q.** Which other hematology parameters ([1]; animal 1) does the source give for GPenGHRGDLRCA here?
**A.** unaffected

**Q.** What about the platelet count reduced [1, 3] of the same substance?
**A.** 14%

**Q.** What about the “white blood cell count reduced” value [1, 3] of the same substance?
**A.** 37%

**Q.** What about the “template bleeding and clotting times” value ([1]; animal 1, two bolus IV injections of 10 mg/kg) of the same substance?
**A.** did not lower

**Q.** What about the “template bleeding time, clotting time, all blood cell counts” value ([1]; animal 2, 10 mg/kg IV bolus + 10 mg/kg/hr infusion) of the same substance?
**A.** no effect

**Q.** For GPenGRGDLPCA, which IC50 [2] is on record?
**A.** 4200 nM

**Q.** With GPenGRGDSPCA as the substance, how does the IC50 (GP IIb/IIIa) read?
**A.** 20000 nM

**Q.** Which IC50 [2] does the source give for PmpGHRGDLRCA here?
**A.** 410 nM

**Q.** For R(am-Pmp)GHRGD(TyrMe)RCR, which IC50 (GP IIb/IIIa) is on record?
**A.** 350 nM
